{"source": "patent US20030073731A1", "about": "“Compositions and methods of the use thereof achiral analogues of CC-1065 and the duocarmycins” (priority 2000, published 2003)", "key": {"[1]": {"test_system": "DU-145"}, "[2]": {"test_system": "CAKI-1"}, "[3]": {"test_system": "UACC-62"}, "[4]": {"test_system": "MOLT-4"}, "[5]": {"test_system": "UACC-257"}, "[6]": {"test_system": "MDA-MB-435"}, "[7]": {"test_system": "HCT-15"}, "[8]": {"test_system": "SW-620"}, "[9]": {"test_system": "SF-295"}, "[10]": {"test_system": "K-562"}, "[11]": {"test_system": "MDA-MB-231/ATCC", "conditions": "read-out: LC50"}, "[12]": {"test_system": "IGROV1"}, "[13]": {"test_system": "CCRF-CEM"}, "[14]": {"test_system": "MCF7/ADR-RES", "conditions": "read-out: LC50"}, "[15]": {"test_system": "HS 578T"}, "[16]": {"test_system": "TK-10"}, "[17]": {"test_system": "HOP-92"}, "[18]": {"test_system": "NCI-H332M"}, "[19]": {"test_system": "NCI-H522"}, "[20]": {"test_system": "OVCAR-4"}, "[21]": {"test_system": "SF-539"}, "[22]": {"test_system": "HT29"}, "[23]": {"test_system": "SN12C"}, "[24]": {"test_system": "SR"}, "[25]": {"test_system": "HCT-116"}, "[26]": {"test_system": "OVCAR-8"}, "[27]": {"test_system": "MCF7"}, "[28]": {"test_system": "SF-268"}, "[29]": {"test_system": "SNB-19"}, "[30]": {"test_system": "M14"}, "[31]": {"test_system": "SK-MEL-5"}, "[32]": {"test_system": "KM12"}, "[33]": {"test_system": "UO-31"}, "[34]": {"test_system": "LOX IMVI"}, "[35]": {"test_system": "HOP-62"}, "[36]": {"test_system": "OVCAR-5"}, "[37]": {"test_system": "NCI-H226"}, "[38]": {"test_system": "ACHN"}, "[39]": {"test_system": "MDA-N"}, "[40]": {"test_system": "RPMI-8226"}, "[41]": {"test_system": "SK-MEL-2"}, "[42]": {"test_system": "OVCAR-3"}, "[43]": {"test_system": "SK-OV-3"}, "[44]": {"test_system": "HCC-2998"}, "[45]": {"test_system": "BT-549"}, "[46]": {"test_system": "EKVX"}, "[47]": {"test_system": "SNB-75"}, "[48]": {"test_system": "NCI-H23"}, "[49]": {"test_system": "786-0"}, "[50]": {"test_system": "A549/ATCC"}, "[51]": {"test_system": "U251"}, "[52]": {"test_system": "panel of 60 human cancer cell lines", "conditions": "48 hour exposure"}, "[53]": {"test_system": "SK-MEL-28"}, "[54]": {"test_system": "PC-3"}, "[55]": {"test_system": "MALME-3M"}, "[56]": {"test_system": "NCI-H460", "assay": "NCI in-vitro cytotoxicity screen, Non-Small Cell Lung Cancer panel", "format": "cell-based", "conditions": "Homo sapiens, NCI-H460, read-out: LC50"}}, "data": [{"compound": "4-(2-Chloroethyl)-3-[5-(5-benzofuran-2-carboxamido)indole-2-carboxamido]phenol [Compound 1]", "values": [{"measurement": "CC50", "setting": "[1]", "result": 27.4, "unit": "µM"}, {"measurement": "CC50", "setting": "[2]", "result": 27.7, "unit": "µM"}, {"measurement": "CC50", "setting": "[3]", "result": 6.18, "unit": "µM"}, {"measurement": "CC50", "setting": "[4]", "result": "> 100", "unit": "µM"}, {"measurement": "CC50", "setting": "[5]", "result": 6.18, "unit": "µM"}, {"measurement": "CC50", "setting": "[6]", "result": 7.45, "unit": "µM"}, {"measurement": "CC50", "setting": "[7]", "result": 16.7, "unit": "µM"}, {"measurement": "CC50", "setting": "[8]", "result": 53.5, "unit": "µM"}, {"measurement": "CC50", "setting": "[9]", "result": 24.2, "unit": "µM"}, {"measurement": "CC50", "setting": "[10]", "result": "> 100", "unit": "µM"}, {"measurement": "CC50", "setting": "[11]", "result": 49.6, "unit": "µM"}, {"measurement": "CC50", "setting": "[12]", "result": 7.77, "unit": "µM"}, {"measurement": "CC50", "setting": "[13]", "result": "> 100", "unit": "µM"}, {"measurement": "CC50", "setting": "[14]", "result": 8.7, "unit": "µM"}, {"measurement": "CC50", "setting": "[15]", "result": "> 100", "unit": "µM"}, {"measurement": "CC50", "setting": "[16]", "result": 19.9, "unit": "µM"}, {"measurement": "CC50", "setting": "[17]", "result": 15.6, "unit": "µM"}, {"measurement": "CC50", "setting": "[18]", "result": 33, "unit": "µM"}, {"measurement": "CC50", "setting": "[19]", "result": 9.33, "unit": "µM"}, {"measurement": "CC50", "setting": "[20]", "result": 13.5, "unit": "µM"}, {"measurement": "CC50", "setting": "[21]", "result": 9, "unit": "µM"}, {"measurement": "CC50", "setting": "[22]", "result": 96.6, "unit": "µM"}, {"measurement": "CC50", "setting": "[23]", "result": 43.5, "unit": "µM"}, {"measurement": "CC50", "setting": "[24]", "result": "> 100", "unit": "µM"}, {"measurement": "CC50", "setting": "[25]", "result": 24.3, "unit": "µM"}, {"measurement": "CC50", "setting": "[26]", "result": 8.12, "unit": "µM"}, {"measurement": "CC50", "setting": "[27]", "result": 5, "unit": "µM"}, {"measurement": "CC50", "setting": "[28]", "result": 57.3, "unit": "µM"}, {"measurement": "CC50", "setting": "[29]", "result": 51.6, "unit": "µM"}, {"measurement": "CC50", "setting": "[30]", "result": 6.81, "unit": "µM"}, {"measurement": "CC50", "setting": "[31]", "result": 6.44, "unit": "µM"}, {"measurement": "CC50", "setting": "[32]", "result": 65, "unit": "µM"}, {"measurement": "CC50", "setting": "[33]", "result": 20, "unit": "µM"}, {"measurement": "CC50", "setting": "[34]", "result": 42.2, "unit": "µM"}, {"measurement": "CC50", "setting": "[35]", "result": 19.5, "unit": "µM"}, {"measurement": "CC50", "setting": "[36]", "result": 20, "unit": "µM"}, {"measurement": "CC50", "setting": "[37]", "result": 44.4, "unit": "µM"}, {"measurement": "CC50", "setting": "[38]", "result": 23.4, "unit": "µM"}, {"measurement": "CC50", "setting": "[39]", "result": 19.7, "unit": "µM"}, {"measurement": "CC50", "setting": "[40]", "result": "> 100", "unit": "µM"}, {"measurement": "CC50", "setting": "[41]", "result": 5.43, "unit": "µM"}, {"measurement": "CC50", "setting": "[42]", "result": 10.9, "unit": "µM"}, {"measurement": "CC50", "setting": "[43]", "result": 26.7, "unit": "µM"}, {"measurement": "CC50", "setting": "[44]", "result": 7.22, "unit": "µM"}, {"measurement": "CC50", "setting": "[45]", "result": "> 100", "unit": "µM"}, {"measurement": "CC50", "setting": "[46]", "result": 13.7, "unit": "µM"}, {"measurement": "CC50", "setting": "[47]", "result": 59, "unit": "µM"}, {"measurement": "CC50", "setting": "[48]", "result": 6.84, "unit": "µM"}, {"measurement": "CC50", "setting": "[49]", "result": 98.3, "unit": "µM"}, {"measurement": "CC50", "setting": "[50]", "result": 24.8, "unit": "µM"}, {"measurement": "CC50", "setting": "[51]", "result": 53.5, "unit": "µM"}, {"measurement": "cytotoxic activity in the NCI screen", "setting": "[52]", "result": "activity in the micromolar range"}, {"measurement": "CC50", "setting": "[53]", "result": 2.14, "unit": "µM"}, {"measurement": "CC50", "setting": "[54]", "result": 18.2, "unit": "µM"}, {"measurement": "CC50", "setting": "[55]", "result": 6.87, "unit": "µM"}]}, {"compound": "COC(=O)c1[nH]c2c(O)cc(NC(=O)c3cc4cc(OC)c(OC)c(OC)c4[nH]3)c(CCCl)c2c1C(=O)OC", "note": "[Compound 22, Dimethyl 4-(2-chloroethyl)-7-hydroxy-5-(5,6,7-trimethoxyindole-2-carboxamido)indole-2,3-dicarboxylate]", "values": [{"measurement": "CC50", "setting": "[56]", "result": 27.4, "unit": "µM"}]}]}
